Experimental data from patent US20230218519A1, “FLUID GEL COMPOSITIONS” (The University of Birmingham, priority 2020, published 2023).

Experiment: Release assay from PEG-DA fluid gel (trans-well, UV/Vis)
Format: physicochemical
Conditions: 3% v/v PEG-DA fluid gel (Example 5.3, 500 rpm), into PBS at 37° C., 5 hrs
Method: • Active amounts: […] • Standard concentrations of active in PBS were prepared. • Standards were pipetted into a quartz cuvette (1 mm pathlength). • UV/Vis spectroscopy was used to measure absorbance between 200 and 700 nm wavelength. • Curves were plotted and used to determine standard curves which were used to determine concentrations. • 0.5 ml PBS was added to the well of a 24 well plate. • The PBS was incubated at 37° C. to equilibrate. • 0.1 ml of the fluid gel containing active was placed in a trans-well insert. • The trans-well insert was placed into a well containing PBS. • After a given time period the trans-well insert was removed and placed in a fresh well of PBS. • The release media was then removed and analysed using […] spectroscopy. Concentrations were derived from the standard curves and cumulative release plotted as a function of time.

## dextran blue
  release of active agent from fluid gel: able to release
